The entries are a selection whose mix differs from that of the whole data set. Active and inactive are the calls of the source.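 How the source made its calls: active means melting temperature shift of at least 10% of the positive control shift, at one fixed dose; inactive means the rest.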
These compounds were tested on Glutamate receptor ionotropic, NMDA 3A (GRIN3A) ligand-binding domain (assay: NR3A LBD thermal stabilization by compounds – biophysical, differential scanning fluorimetry, uHTS, primary screen (AID 1259313)). Conditions: at 25 µM, active compounds read high, 0% = protein alone, 100% = glycine-bound protein.
For `CC(C)c1ccc(NC2CCN(C(=O)OC(C)(C)C)CC2)cc1`, the Tm shift relative to glycine control was inactive: 0.85%.
With `CN(C)c1cccc(C(=O)NCC2(N3CCCCC3)CCCCC2)c1` the Tm shift relative to glycine control was inactive: 0.08%.
With `COc1ccc(CN(CCCl)CCCl)cc1Cl` the Tm shift relative to glycine control was inactive: -1.26%.
For `O=C(NCC1(N2CCOCC2)CCCCC1)c1cc(F)c(F)cc1Cl`, the Tm shift relative to glycine control was inactive: 0.26%.
With `COc1cc(OC)c(C(=O)NCC2(N(C)C)CCCCC2)cc1OC` the Tm shift relative to glycine control was inactive: 1.71%.
In the case of `O=C(NCC1(N2CCCCC2)CCCCC1)c1cncc(Br)c1`, the Tm shift relative to glycine control is reported as inactive: 1.88%.
In the case of `CN1CCC(Nc2cccc(F)c2)CC1`, the Tm shift relative to glycine control is reported as inactive: 0.35%.
`CCCOc1ccc(C(=O)NCC2(N(C)C)CCCCC2)cc1OC` was tested, and the Tm shift relative to glycine control was inactive: 1.21%.
For `O=C(NCC1(N2CCCCC2)CCCCC1)c1ccc(OC(F)F)cc1`, the Tm shift relative to glycine control was inactive: -1.31%.
With `N#CC1(Nc2ccccc2)CCN(CCc2ccccc2)CC1` the Tm shift relative to glycine control was inactive: 3.68%.
For `CCN1CCC(Nc2ccc(Cl)cc2)CC1`, the Tm shift relative to glycine control was inactive: -3%.
With `O=C(NCC1(N2CCCCC2)CCCCC1)c1cccc([N+](=O)[O-])c1` the Tm shift relative to glycine control was inactive: 0.45%.
With `CSc1ccc(C(=O)NCC2(N3CCOCC3)CCCCC2)cc1` the Tm shift relative to glycine control was inactive: -0.93%.
`O=C(NCC1(N2CCCCC2)CCCCC1)c1cccc(C(F)(F)F)c1` was tested, and the Tm shift relative to glycine control was inactive: -0.09%.
In the case of `COc1cc(C(=O)NCC2(N3CCCCC3)CCCCC2)ccc1OC(F)F`, the Tm shift relative to glycine control is reported as inactive: -0.2%.
`O=C(NCC1(N2CCOCC2)CCCCC1)c1cc(=O)[nH]c2ccccc12` was tested, and the Tm shift relative to glycine control was inactive: -14%.
In the case of `CN1CCN(CCOC(=O)C(O)(c2ccccc2)c2ccccc2)CC1`, the Tm shift relative to glycine control is reported as inactive: -2.36%.
With `COc1ccc(NC2CCN(C(=O)OC(C)(C)C)CC2)cc1` the Tm shift relative to glycine control was inactive: -0.95%.
In the case of `CC(C)c1ccc(C(=O)NCC2(N3CCOCC3)CCCCC2)cc1`, the Tm shift relative to glycine control is reported as inactive: -3.9%.
With `O=C1CCN(Cc2ccccc2)CC1` the Tm shift relative to glycine control was inactive: 0.8%.
`CCOc1ccc(C)cc1CN(CCCl)CCCl` was tested, and the Tm shift relative to glycine control was inactive: 2.22%.
For `COc1ccc(NC2CCN(CCc3ccccc3)CC2)c(OC)c1`, the Tm shift relative to glycine control was inactive: -4.44%.
With `CCOC(=O)N1CCC(Nc2ccc(F)cc2)CC1` the Tm shift relative to glycine control was inactive: 0.91%.
With `O=C(NCC1(N2CCCCC2)CCCCC1)c1ccc(F)cc1` the Tm shift relative to glycine control was inactive: -0.09%.
For `O=P1(N(CCCl)CCCl)SCCCS1`, the Tm shift relative to glycine control was inactive: 0.6%.
`CCCCOc1ccc(C(=O)NCC2(N3CCOCC3)CCCCC2)cc1` was tested, and the Tm shift relative to glycine control was inactive: -0.08%.
`COc1cc(C(=O)NCC2(N(C)C)CCCCC2)ccc1OC(F)F` was tested, and the Tm shift relative to glycine control was inactive: -4.51%.
In the case of `CCOC(=O)N1CCC(Nc2cccc(C)c2)CC1`, the Tm shift relative to glycine control is reported as inactive: 0.2%.
For `COc1ccc(C(=O)NCC2(N3CCCCC3)CCCCC2)c(OC)c1OC`, the Tm shift relative to glycine control was inactive: 9.11%.
In the case of `CC(C)(C)OC(=O)N1CCC(N(C(=O)c2ccccc2)c2ccc(F)cc2)CC1`, the Tm shift relative to glycine control is reported as inactive: -0.19%.
In the case of `COc1ccc(C(=O)NCC2(N3CCCCC3)CCCCC2)cc1`, the Tm shift relative to glycine control is reported as inactive: -0.6%.
`O=C(NCC1(N2CCCCC2)CCCCC1)c1cccs1` was tested, and the Tm shift relative to glycine control was inactive: 1.43%.
`O=C(NCC1(N2CCCCC2)CCCCC1)c1ccc(=O)[nH]c1` was tested, and the Tm shift relative to glycine control was inactive: 2.43%.
`Cc1cccc(NC2(C#N)CCN(Cc3ccccc3)CC2)c1` was tested, and the Tm shift relative to glycine control was inactive: 0.42%.
`CSc1ccccc1C(=O)NCC1(N2CCCCC2)CCCCC1` was tested, and the Tm shift relative to glycine control was inactive: 1.13%.
For `Cc1cc(C)cc(N(C(=O)c2ccccc2)C2CCN(C(=O)OC(C)(C)C)CC2)c1`, the Tm shift relative to glycine control was inactive: -8.54%.
`O=C(NCC1(N2CCCCC2)CCCCC1)c1ccc(Cl)nc1` was tested, and the Tm shift relative to glycine control was inactive: 0.64%.
In the case of `O=C(NCC1(N2CCOCC2)CCCCC1)c1cc2ccccc2o1`, the Tm shift relative to glycine control is reported as inactive: -1.49%.
For `COc1ccc(Cl)cc1C(=O)NCC1(N2CCOCC2)CCCCC1`, the Tm shift relative to glycine control was inactive: 2.5%.
`O=C(OC1CN2CCC1CC2)C1c2ccccc2Oc2ccccc21` (stereo not given) was tested, and the Tm shift relative to glycine control was inactive: 0.55%.
For `O=C(NCC1(N2CCCCC2)CCCCC1)c1ccc(Cl)s1`, the Tm shift relative to glycine control was inactive: -0.83%.
For `N#CC1(Nc2ccccc2)CCN(Cc2ccccc2)CC1`, the Tm shift relative to glycine control was inactive: -0.21%.
`CCOC(=O)N1CCC(Nc2ccc(OC)cc2)CC1` was tested, and the Tm shift relative to glycine control was inactive: -0.68%.
For `CN1CCC(Nc2ccc(F)c(Cl)c2)CC1`, the Tm shift relative to glycine control was inactive: 1.55%.
`CCOc1ncccc1C(=O)NCC1(N2CCOCC2)CCCCC1` was tested, and the Tm shift relative to glycine control was inactive: 0.37%.
`O=C(O)C1(Nc2ccccc2)CCN(Cc2ccccc2)CC1` was tested, and the Tm shift relative to glycine control was inactive: 0%.
In the case of `CC(C)(C)OC(=O)N1CCC(Nc2ccccc2)CC1`, the Tm shift relative to glycine control is reported as inactive: -3.1%.
`CCCOc1ccc(C(=O)NCC2(N(C)C)CCCCC2)cc1` was tested, and the Tm shift relative to glycine control was inactive: 6.55%.
With `COc1cc(OC)cc(C(=O)NCC2(N3CCOCC3)CCCCC2)c1` the Tm shift relative to glycine control was inactive: -0.67%.
With `COc1cccc(C(=O)N(c2cc(C)cc(C)c2)C2CCN(C(=O)OC(C)(C)C)CC2)c1` the Tm shift relative to glycine control was inactive: -2.51%.
`CCC(CO)(C(=O)OC1CN2CCC1CC2)c1ccccc1` (stereo not given) was tested, and the Tm shift relative to glycine control was inactive: 1.3%.
`CN1CCC(Nc2ccc(Cl)cc2)CC1` was tested, and the Tm shift relative to glycine control was inactive: 1.08%.
`CC(=O)N(c1ccccc1)C1CCNCC1` was tested, and the Tm shift relative to glycine control was inactive: -1.18%.
For `COc1cc(OC)cc(C(=O)NCC2(N3CCCCC3)CCCCC2)c1`, the Tm shift relative to glycine control was inactive: -2.8%.
In the case of `Fc1ccccc1NC1CCN(Cc2ccccc2)CC1`, the Tm shift relative to glycine control is reported as inactive: -0.09%.
For `Cc1ccc(C(=O)NCC2(N3CCCCC3)CCCCC2)o1`, the Tm shift relative to glycine control was inactive: -1.05%.
With `Cc1ccc(NC2(C#N)CCN(Cc3ccccc3)CC2)cc1` the Tm shift relative to glycine control was inactive: 1.76%.
For `CCN1CCC(Nc2cccc(F)c2)CC1`, the Tm shift relative to glycine control was inactive: -1.46%.
In the case of `Cc1ccccc1NC1(C#N)CCN(Cc2ccccc2)CC1`, the Tm shift relative to glycine control is reported as inactive: 0.6%.
`Cn1c(=O)[nH]cc(N(CCCl)CCCl)c1=O` was tested, and the Tm shift relative to glycine control was inactive: 1.61%.
For `CN(C)c1ccc(C(=O)NCC2(N3CCCCC3)CCCCC2)cc1`, the Tm shift relative to glycine control was inactive: -0.31%.
In the case of `O=C(NCC1(N2CCCCC2)CCCCC1)c1ccco1`, the Tm shift relative to glycine control is reported as inactive: -1.58%.
In the case of `N#Cc1ccc(C(=O)NCC2(N3CCCCC3)CCCCC2)cc1`, the Tm shift relative to glycine control is reported as inactive: 1.48%.
In the case of `CC(C)(C)OC(=O)N1CCC(N(C(=O)c2ccccc2)c2ccc(Cl)cc2)CC1`, the Tm shift relative to glycine control is reported as inactive: -2.63%.
With `CN(C)C1(CNC(=O)c2cccc(C#N)c2)CCCCC1` the Tm shift relative to glycine control was inactive: 1.06%.
`CCCN1CCC(Nc2cc(OC)cc(OC)c2)CC1` was tested, and the Tm shift relative to glycine control was inactive: 2.82%.
With `Cc1cc(N(CCCl)CCCl)ccc1C=O` the Tm shift relative to glycine control was inactive: -1%.
With `c1ccc(CN2CCC(Nc3ccccc3)CC2)cc1` the Tm shift relative to glycine control was inactive: 1.5%.
With `COc1cc(C(=O)NCC2(N3CCOCC3)CCCCC2)cc(OC)c1C` the Tm shift relative to glycine control was inactive: 0.17%.
In the case of `O=C(NCC1(N2CCOCC2)CCCCC1)c1cc(Br)ccc1Cl`, the Tm shift relative to glycine control is reported as inactive: 1.49%.
In the case of `COc1ccc(C(=O)NCC2(N3CCOCC3)CCCCC2)cc1OC`, the Tm shift relative to glycine control is reported as inactive: -1.2%.
For `CCOC(=O)N1CCC(Nc2ccc(C)cc2)CC1`, the Tm shift relative to glycine control was inactive: 1.55%.
In the case of `N/C(=N\O)c1c(N)no[n+]1[O-]`, the Tm shift relative to glycine control is reported as inactive: -0.09%.
With `O=C(OC1CN2CCC1CC2)C1c2ccccc2C=Cc2ccccc21` (stereo not given) the Tm shift relative to glycine control was inactive: -0.88%.
In the case of `CCc1cc(C(=O)NCC2(N3CCCCC3)CCCCC2)sc1C`, the Tm shift relative to glycine control is reported as inactive: -0.42%.
